Laboratory results reported in ChEMBL document CHEMBL5055621, “Synthesis and Characterization of the Novel Rodent-Active and CNS-Penetrant P2X7 Receptor Antagonist Lu AF27139” (J Med Chem, 2021).

Key:
P2X purinoceptor 7 [1] = target: T1, P2X purinoceptor 7 (Rattus norvegicus, UniProt Q64663); experiment: Antagonist activity at rat P2X7 receptor expressed in HEK293 cells assessed as inhibition of BzATP-induced calcium-flux measured after 60 mins by FLIPR analysis; format: cell-based
T1 sequence (Q64663 whole entry): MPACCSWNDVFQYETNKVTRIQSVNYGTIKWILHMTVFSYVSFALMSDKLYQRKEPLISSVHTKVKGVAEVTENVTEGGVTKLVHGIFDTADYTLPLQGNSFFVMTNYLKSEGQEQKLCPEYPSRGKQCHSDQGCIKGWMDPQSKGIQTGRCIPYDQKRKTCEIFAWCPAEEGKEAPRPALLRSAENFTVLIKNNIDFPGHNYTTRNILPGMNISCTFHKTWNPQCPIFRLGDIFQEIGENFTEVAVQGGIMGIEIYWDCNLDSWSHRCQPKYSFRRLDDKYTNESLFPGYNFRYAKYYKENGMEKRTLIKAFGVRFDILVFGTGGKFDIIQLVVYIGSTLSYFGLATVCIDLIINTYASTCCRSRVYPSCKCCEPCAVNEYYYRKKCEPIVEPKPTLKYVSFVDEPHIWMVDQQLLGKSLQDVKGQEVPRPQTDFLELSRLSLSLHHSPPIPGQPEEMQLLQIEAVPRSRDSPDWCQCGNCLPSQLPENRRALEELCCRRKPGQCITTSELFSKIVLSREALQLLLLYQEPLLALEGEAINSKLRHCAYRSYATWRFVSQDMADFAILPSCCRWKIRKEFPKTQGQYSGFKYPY
Outline: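 Stable rat or mouse P2X7 HEK293 cells in HBSS/20 mM HEPES/2.5 mM probenecid/0.05% BSA, pH 7.4, were loaded with Fluo-4 NW (37 °C 30 min, RT 30 min). Antagonist was preincubated before EC80 BzATP (rat 15 μM). After 30 min at RT, calcium fluorescence was read by FLIPR; n ≥ 3.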

P2X purinoceptor 7 [2] = target: T1, P2X purinoceptor 7; experiment: Displacement of [3H]-A-804598 from rat P2X7 receptor expressed in HEK293 cell membrane by in vitro binding assay; format: cell membranes
Outline: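 Binding used membranes from P2X7-transfected HEK293 cells (rat 10 μg, human 40 μg, mouse 60 μg per well) with [3H]-A-804598.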

In the case of COc1ccc(CC(=O)NC(N/C(=N/C#N)Nc2cccc3ncccc23)C(C)(C)C)cc1OC (configuration not stated), the IC50 (P2X purinoceptor 7 [1]) is reported as 4 nM and the Ki (P2X purinoceptor 7 [2]) is reported as 59 nM.
